Laboratory results published in patent US10654807B2, “Toll-like receptor 8 agonists” (The University Of Kansas, priority 2013, dated 2020).

Molecular target: T1, human TLR8 (Homo sapiens, UniProt Q9NR97)
T1 construct: HEK293 cells stably co-transfected with the appropriate hTLR, MD2, and secreted alkaline phosphatase (sAP); expressed in transfected cells; host or cells: HEK293 (HEK-Blue™)
T1 sequence (Q9NR97 27-1041): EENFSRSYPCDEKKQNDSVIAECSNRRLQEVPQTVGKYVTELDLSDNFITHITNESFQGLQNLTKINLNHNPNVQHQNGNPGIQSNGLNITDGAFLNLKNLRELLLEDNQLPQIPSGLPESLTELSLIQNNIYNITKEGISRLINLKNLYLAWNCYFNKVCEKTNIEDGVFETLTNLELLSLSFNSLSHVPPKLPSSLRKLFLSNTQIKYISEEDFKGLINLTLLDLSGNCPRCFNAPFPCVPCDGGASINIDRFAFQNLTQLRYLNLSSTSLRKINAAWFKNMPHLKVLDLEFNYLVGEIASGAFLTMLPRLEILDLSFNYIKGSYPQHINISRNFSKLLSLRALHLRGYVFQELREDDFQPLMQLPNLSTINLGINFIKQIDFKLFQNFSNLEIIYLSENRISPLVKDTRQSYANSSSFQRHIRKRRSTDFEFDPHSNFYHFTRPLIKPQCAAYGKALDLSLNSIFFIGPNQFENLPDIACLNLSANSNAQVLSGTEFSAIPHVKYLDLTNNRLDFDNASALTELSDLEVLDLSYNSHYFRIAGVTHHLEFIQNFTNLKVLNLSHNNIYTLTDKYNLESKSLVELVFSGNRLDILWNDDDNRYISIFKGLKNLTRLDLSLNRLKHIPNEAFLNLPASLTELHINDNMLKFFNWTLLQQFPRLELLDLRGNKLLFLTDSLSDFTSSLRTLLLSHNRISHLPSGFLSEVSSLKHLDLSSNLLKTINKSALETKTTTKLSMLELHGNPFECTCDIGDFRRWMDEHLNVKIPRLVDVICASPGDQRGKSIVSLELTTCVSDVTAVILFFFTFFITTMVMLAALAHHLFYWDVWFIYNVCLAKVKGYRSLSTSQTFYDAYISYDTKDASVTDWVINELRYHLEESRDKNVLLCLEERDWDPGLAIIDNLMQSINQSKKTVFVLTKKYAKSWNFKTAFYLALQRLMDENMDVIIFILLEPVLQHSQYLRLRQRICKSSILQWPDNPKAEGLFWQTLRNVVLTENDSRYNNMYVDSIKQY
Assay: human TLR8-specific HEK-Blue reporter gene assay (NF-κB induction)
Type: cell-based

## CCCCCc1cc2ccccc2nc1N [Compound 14b, 3-Pentylquinolin-2-amine]
Fold greater potency than Compound 3
  TLR8-agonistic potency relative to parent Compound 3: eight times greater
Fold greater potency than the 3-butoxy analogue
  TLR8-agonistic potency relative to Compound 6b: ten-fold greater
Human TLR8-specific reporter gene assays, Table 1, read-out: Agonistic Activity EC50 (μM) TLR8
  EC50: 0.2 µM
